Here are results for one molecule from ChEMBL document CHEMBL1134508, “3-(4-aroyl-1H-pyrrol-2-yl)-N-hydroxy-2-propenamides, a new class of synthetic histone deacetylase inhibitors” (J Med Chem, 2001).

In assay [1] the target is T1, Histone deacetylase HD2 (Zea mays, UniProt Q94F81).
T1 sequence (Q94F81 whole entry): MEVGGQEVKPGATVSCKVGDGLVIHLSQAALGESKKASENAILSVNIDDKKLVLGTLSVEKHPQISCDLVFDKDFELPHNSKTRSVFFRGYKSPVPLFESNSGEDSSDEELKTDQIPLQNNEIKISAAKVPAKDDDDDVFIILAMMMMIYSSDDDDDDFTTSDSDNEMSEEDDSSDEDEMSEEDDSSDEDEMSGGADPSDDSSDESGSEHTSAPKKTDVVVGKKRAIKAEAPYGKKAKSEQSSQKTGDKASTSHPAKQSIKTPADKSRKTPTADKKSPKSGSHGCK
In words: Experimental anti-HDAC (anti-histone deacetylase) activity of the compound.

Assay [2] deals with T1, Histone deacetylase HD2. As to the kind of experiment: Inhibitory concentration against histone deacetylase activity.

Molecules are shown by their SMILES.

`CC(/C=C/C(=O)NO)=C\[C@@H](C)C(=O)c1ccc(N(C)C)cc1` [TRICHOSTATIN] showed a Ki at Histone deacetylase HD2 [1] of 4.37 nM. The molecule also displayed an IC50 against Histone deacetylase HD2 [2] of 7.2 nM.

A word on the Ki: it is a dissociation constant, usually derived from enzyme kinetics or from competition with a known ligand. The IC50 is the point on the concentration scale where inhibition reaches its midpoint. Low values mean greater potency in that assay, high ones weaker potency in that assay.
